ChEMBL document CHEMBL2417394, “Exquisite selectivity for human toll-like receptor 8 in substituted furo[2,3-c]quinolines” (J Med Chem, 2013)

How the values were obtained:
[1] = target: T1, Toll-like receptor 8 (Homo sapiens) (UniProt Q9NR97); assay: Agonist activity at TLR8 in human PBMC assessed as increase of G-CSF level after 12 hrs
T1 sequence (whole entry): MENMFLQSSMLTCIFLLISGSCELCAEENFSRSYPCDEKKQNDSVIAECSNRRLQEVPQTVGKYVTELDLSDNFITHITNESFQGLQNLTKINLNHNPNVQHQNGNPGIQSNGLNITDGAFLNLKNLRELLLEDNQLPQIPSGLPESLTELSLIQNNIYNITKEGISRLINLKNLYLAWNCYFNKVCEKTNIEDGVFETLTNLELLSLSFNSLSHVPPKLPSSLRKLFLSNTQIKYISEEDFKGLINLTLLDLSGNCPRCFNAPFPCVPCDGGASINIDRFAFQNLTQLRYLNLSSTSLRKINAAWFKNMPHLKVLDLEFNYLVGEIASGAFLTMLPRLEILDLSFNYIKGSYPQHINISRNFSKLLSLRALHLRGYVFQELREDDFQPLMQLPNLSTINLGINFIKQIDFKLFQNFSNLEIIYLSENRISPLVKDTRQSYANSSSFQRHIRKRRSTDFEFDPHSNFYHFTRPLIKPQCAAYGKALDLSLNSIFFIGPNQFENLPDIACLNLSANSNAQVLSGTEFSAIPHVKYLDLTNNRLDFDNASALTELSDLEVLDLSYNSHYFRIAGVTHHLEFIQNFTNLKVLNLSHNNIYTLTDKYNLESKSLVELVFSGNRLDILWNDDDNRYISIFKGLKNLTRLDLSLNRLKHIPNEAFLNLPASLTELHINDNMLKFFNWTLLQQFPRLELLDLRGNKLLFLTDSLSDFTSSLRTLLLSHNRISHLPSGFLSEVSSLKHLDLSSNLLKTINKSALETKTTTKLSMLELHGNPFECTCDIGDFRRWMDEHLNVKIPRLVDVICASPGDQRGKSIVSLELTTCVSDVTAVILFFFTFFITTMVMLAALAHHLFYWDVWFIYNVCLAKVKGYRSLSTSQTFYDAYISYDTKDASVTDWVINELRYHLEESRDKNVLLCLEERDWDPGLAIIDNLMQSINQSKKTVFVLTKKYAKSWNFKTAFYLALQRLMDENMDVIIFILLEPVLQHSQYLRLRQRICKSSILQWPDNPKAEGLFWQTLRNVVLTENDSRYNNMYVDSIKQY
Summary of the method: (§1)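 Fresh human PBMCs isolated on Ficoll-Hypaque gradients, plated at 10⁵ cells/well and stimulated for 12 h with graded concentrations of compound. Supernatants were collected by centrifugation and assayed in triplicate with a magnetic bead-based multiplexed cytokine/chemokine bead array. Read on a MAGPIX instrument; intra-assay CV 4–8%.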

[2] = target: T1, Toll-like receptor 8 (Homo sapiens); assay: Agonist activity at human TLR8 in human whole blood assessed as induction of IL-1beta production
[3] = target: T1, Toll-like receptor 8 (Homo sapiens); assay: Modulation of human TLR8 expressed in HEK293 cells co-transfected with MD2 and sAP assessed as induction of NF-kappaB activity by reporter gene assay; format: cell-based
[4] = target: T1, Toll-like receptor 8 (Homo sapiens); assay: Agonist activity at human TLR8 in human whole blood assessed as induction of IL-18 production
[5] = target: T1, Toll-like receptor 8 (Homo sapiens); assay: Agonist activity at human TLR8 in human whole blood assessed as CD69 upregulation after 16.5 hrs by flow cytometry
[6] = target: T1, Toll-like receptor 8 (Homo sapiens); assay: Agonist activity at human TLR8 in human whole blood assessed as CD69 upregulation after 16.5 hrs by flow cytometry in absence of natural killer lymphocytes
[7] = target: T1, Toll-like receptor 8 (Homo sapiens); assay: Agonist activity at human TLR8 in human whole blood assessed as induction of IL-12 production
[8] = target: T1, Toll-like receptor 8 (Homo sapiens); assay: Agonist activity at human TLR8 in human whole blood assessed as induction of IL-6 production
[9] = target: T1, Toll-like receptor 8 (Homo sapiens); assay: Agonist activity at TLR8 in human PBMC assessed as increase of MIP1beta level after 12 hrs; summary of the method: as §1
[10] = target: T1, Toll-like receptor 8 (Homo sapiens); assay: Agonist activity at human TLR8 in human whole blood assessed as induction of TNFalpha production
[11] = target: T1, Toll-like receptor 8 (Homo sapiens); assay: Agonist activity at TLR8 in human PBMC assessed as increase of MIP1alpha level after 12 hrs; summary of the method: as §1
[12] = target: T1, Toll-like receptor 8 (Homo sapiens); assay: Agonist activity at human TLR8 in human whole blood assessed as induction of IL-8 production
[13] = target: T1, Toll-like receptor 8 (Homo sapiens); assay: Agonist activity at TLR8 in human PBMC assessed as increase of GRO level after 12 hrs; summary of the method: as §1

**Q.** `CCCCc1cc2c(o1)c(N)nc1ccccc12` was tested. Which Activity [1] did it give?
**A.** Active

**Q.** What about the Activity [2] of the same compound?
**A.** Dose-dependent effect

**Q.** What about the Activity [3] of the same compound?
**A.** Active

**Q.** What about the Activity [4] of the same compound?
**A.** Active

**Q.** What about the Activity [5] of the same compound?
**A.** Active

**Q.** What about the Activity [6] of the same compound?
**A.** inactive

**Q.** What about the Activity [7] of the same compound?
**A.** Active

**Q.** What about the Activity [8] of the same compound?
**A.** Dose-dependent effect

**Q.** And the Activity [9]?
**A.** Active

**Q.** What about the Activity [10] of the same compound?
**A.** Dose-dependent effect

**Q.** And the Activity [11]?
**A.** Active

**Q.** What about the Activity [12] of the same compound?
**A.** Dose-dependent effect

**Q.** And the Activity [13]?
**A.** Active

Active and inactive are the calls of the source. The calls are words filed in the database; no cut-off is given here.
